System: MT-mediated slow axonal transport of 2H-labeled tubulin
Experiment: MT-mediated slow axonal transport of 2H-labeled tubulin in L5 root and sciatic nerve
Format: in vivo, mouse
Settings: 13 weeks old SOD1G93A mice; 3 weeks treatment

SMILES: Nc1nc2ccc(OC(F)(F)F)cc2s1 [Riluzole]
- slow axonal transport of 2H-tubulin: no significant effect

Reference: patent US20110076236A1, “COMPOSITIONS AND METHODS OF TREATMENT USING MODULATORS OF MOTONEURON DISEASES” (Kinemed, Inc., priority 2008, published 2011)
